## Apparent affinities of Ab-14 variants for a coronavirus HR2 peptide

Target peptide (SARS-CoV-2 spike, HR2 region): PDVDLGDISGINAS

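Designed CDR sequences, proposed from the first random library and measured here. Group labels follow the data file (Ctrl: baseline library sampled from a position-specific scoring matrix, with some repeated check sequences; GPLM: also part of the Gaussian process libraries; Gibbs: Gibbs sampling; a sequence that several methods proposed may carry one label only). The assay is AlphaSeq: two haploid yeast populations carry antibody and antigen on their surface. Mating (16 h, 30 °C) was followed by selection of diploids and sequencing of their barcodes. Scores were corrected for input abundance and mapped to Kd with protein pairs of known affinity run in the same pool. Mating was done six times.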

Parent scFv Ab-14: VH joined to VL by the linker GGGGSGGGGSGGGGS. Changes lie in the heavy chain CDRs alone.
VH: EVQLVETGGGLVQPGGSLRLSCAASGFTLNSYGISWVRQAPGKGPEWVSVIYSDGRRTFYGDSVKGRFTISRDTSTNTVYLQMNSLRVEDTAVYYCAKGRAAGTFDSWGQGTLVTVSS
VL: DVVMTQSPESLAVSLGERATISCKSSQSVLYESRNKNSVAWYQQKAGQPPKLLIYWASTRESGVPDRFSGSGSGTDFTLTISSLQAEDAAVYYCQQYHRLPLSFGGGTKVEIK

The parent's heavy chain CDRs are GFTLNSYGIS, VIYSDGRRTFYGDSVK, GRAAGTFDS; each variant's own CDRs replace them letter for letter. Scale: log10 of Kd in nM, estimated from mating counts; low values are strong binders. Replicates are averaged; those with no signal do not enter the mean. "ND" means that the variant was in the library but no mating with the target was seen in that replicate; the authors take this as a sign of poor binding, and no number exists. The range of this assay differs from that of the first round, and the authors advise against merging the two. Of ten entries with the parent sequence, four were seen in most replicates (averages 0.34 to 2.37), three in one and three in none, so single entries are noisy. Background: pairings of all heavy chain designs with three empty control strains gave a value in 1% of cases (median 2.08, 5th percentile 0.84). Values in that range, when seen in few replicates, are hard to tell from nonspecific mating. The control count says in how many pairings with the empty strains this scFv gave a signal, with their mean in brackets. A sequence that the file lists under several names has all its replicates listed entry by entry, parted by semicolons. The authors averaged sequences with at least three values out of six and counted those with two or fewer as poor binders.

| CDR-H1 | CDR-H2 | CDR-H3 | group | log10 Kd, replicates | log10 Kd (nM), mean | signal with controls |
|---|---|---|---|---|---|---|
| KFTLNSYGIS | VIYSDGRRTFYGDSVK | GRAAGTFEV | Ctrl | ND ND ND ND ND ND | ND | 0 of 18 |
| GFTLNSYGIS | VIYSDGRRTFYGDSVK | GKAACTFDS | Ctrl | ND ND ND ND ND ND | ND | 0 of 18 |
| GFTQNSYGVS | VIYSDGRRTFYGDDVR | GRIAGTFDS | Ctrl | ND ND ND ND ND ND | ND | 0 of 18 |
| GFTLNSYGIQ | VIYSDGYRTFYADSVK | GAAADTFDL | Ctrl | ND ND ND ND 1.96 ND | 1.96 | 0 of 18 |
| GFTLNDYGVS | VIYSDGRRTFYIDSVK | GRAAGTFDQ | Ctrl | ND 0.84 0.62 2.39 0.60 ND | 1.11 | 0 of 18 |
| GFSLGEYGCS | VIYSDGRRTFYGDSVR | GRAAGTFDS | Ctrl | ND 2.51 1.64 ND ND 1.63 | 1.93 | 0 of 18 |
| GFTLNSYGIS | VIYSDGIRTFYGDSVK | GREAGTFRS | Ctrl | ND ND ND ND ND ND | ND | 0 of 18 |
| GFDLNSYGSS | VIYSDGRRTFYGDSVK | GGQAGPFDL | Ctrl | ND ND ND ND ND ND | ND | 0 of 18 |
| GFTLTSPGIS | VIYSDGRRTFYGDSVK | GRAAGTFDT | Ctrl | -0.07 -0.44 -0.11 -0.42 -0.70 0.15 | -0.26 | 0 of 18 |
| GFTLNSYSIS | VIYSDGRRTFYGDSVR | GRDAGRFVD | Ctrl | ND ND ND ND ND ND | ND | 0 of 18 |
| GFTLNSYGIS | VIYSDGRRTFYGDSVK | GRAAGTFLD | Ctrl | ND ND ND ND ND ND | ND | 0 of 18 |
| GFTLNSYGIS | VIYSDGRRTFYIDSVK | GRAPATFDS | Ctrl | ND ND ND ND ND ND | ND | 0 of 18 |
| GFTLNEYGIS | VIYSDGRETFYADSVK | GRAALTFDS | Ctrl | ND ND ND ND ND ND | ND | 0 of 18 |
| GFTLNDYGIS | VIYADGRRTFYGDSVK | GKMAKTGDS | Ctrl | ND ND ND ND ND ND | ND | 0 of 18 |
| GFSLKSYGIS | VIYSDGRRTFYGDSVK | GQACATFES | Ctrl | ND ND ND ND ND ND | ND | 0 of 18 |
| GFNLNMYGIS | VIYSDGRRTFYGDSVK | GQAAGTFDS | Ctrl | 1.53 1.23 1.28 1.43 0.87 1.16 | 1.25 | 1 of 18 (2.35) |
| GFTLNSYGIS | VIYSDGIRTMYNDSVK | GRAAGSFDS | Ctrl | ND ND ND ND ND ND | ND | 0 of 18 |
| GFTLNSYGIS | VIYSDGRRTFYGDSVK | GRNTGTFDS | Ctrl | ND ND ND ND ND ND | ND | 0 of 18 |
| GFTLNSYGIS | VIYSDGWRTFYVDSVK | GWEAGTFDL | Ctrl | ND ND ND ND ND ND | ND | 1 of 18 (2.09) |
| GFTLNSYGIS | VIYFDGRRTFYGDSVK | GRAAGTYDS | Ctrl | ND ND ND ND ND ND | ND | 0 of 18 |
| GFTLNSYGIS | VIYSDGRRTFYGDSVK | GMAAGTFDS | Ctrl | ND ND ND ND 2.29 ND | 2.29 | 0 of 18 |
| GFTVNDYGIS | VIYSDGRRTAYGDSVK | GRAAGYFDS | Ctrl | ND ND ND ND ND ND | ND | 0 of 18 |
| GFTLNSYGIS | VIYSDGRRTFYGDSVK | GSAATTFDS | Ctrl | ND 4.16 ND ND ND ND | 4.16 | 0 of 18 |
| GESLNSYGIS | VIYSDGRRTFYADSVK | GRAAGTFNS | Ctrl | 1.42 0.98 0.62 0.54 0.71 0.60 | 0.81 | 0 of 18 |
| GFTLNSYGIS | VIYSDGRRTFYGDSVR | GRNMGTFDS | Ctrl | ND ND ND ND ND ND | ND | 0 of 18 |
| GFTLNDYGIS | VIYSDGRRTFYGDSVK | GSLAGTVDL | Ctrl | ND ND ND ND 2.33 ND | 2.33 | 1 of 18 (2.76) |
| GFTPNSYGIS | VIYSDGARTFYGDEVK | GRAAGQFHS | Ctrl | ND ND ND ND ND ND | ND | 0 of 18 |
| GFTLNSYGIS | VIYSDGQRTFYGDSVK | GRAKDIFDS | Ctrl | ND ND ND ND ND ND | ND | 0 of 18 |
| GETLNDYGIS | VIYSDGRRTFYGDNVK | GRAAGTFDS | Ctrl | ND ND ND ND ND ND | ND | 0 of 18 |
| GFTLNEYGIS | VIYSDGRRTFYIDSVK | GPAAGTFDS | Ctrl | 1.92 1.94 ND ND ND ND | 1.93 | 1 of 18 (2.14) |
| KFTLDSYGIS | VIYSDGRRTFYGDDVK | GRAALTFNS | Ctrl | ND ND ND ND ND ND | ND | 0 of 18 |
| GFTLNSYGIS | VIYSDGRRTFYGDSVK | GNAALIFDS | Ctrl | ND ND ND ND ND ND | ND | 0 of 18 |
| GFTLNSYGIS | VIYSDGYRTFYGDSVK | GRAAGTFSS | Ctrl | ND ND ND ND ND ND | ND | 0 of 18 |
| GFDLNSYGIS | VIYSDGRRTFYQDSVA | GNHAGTFLS | Ctrl | ND 2.34 ND ND ND ND | 2.34 | 0 of 18 |
| GEHLNSYGIS | VIYSDGRRTFYGDSVK | GRAAGTNPS | Ctrl | ND ND ND ND ND ND | ND | 0 of 18 |
| GFTLNDYGIS | VIYSDGYRTGYLDSVK | GRAAGTFIS | Ctrl | ND ND ND ND ND ND | ND | 0 of 18 |
| GFSLNDYGIS | VIYADGRRTFYGDSVK | DWWAGTVDS | Ctrl | ND ND ND ND ND ND | ND | 0 of 18 |
| GFTLNSYGIS | VIYSDGRRTFYGDEVK | GRLAGTFDL | Ctrl | 3.27 ND ND ND ND ND; 0.79 1.10 0.96 0.24 ND 0.86; ND ND ND ND ND ND; 1.79 1.89 1.56 ND 2.36 ND | 1.48 | 0 of 72 |
| GFTLNSYGIS | VIYSDGRRTFYGDSVK | GPVKGTFRS | Ctrl | ND ND ND 2.52 2.61 2.40 | 2.51 | 0 of 18 |
| GLNLNSYGIS | VIYSDGRRTFYKDSVK | GRAAGTFDS | Ctrl | 0.48 0.21 0.07 0.25 0.44 2.29 | 0.62 | 0 of 18 |
| GFTLKSYGIS | VIYSDGKRTFYSDSVK | DRAAGTFDS | Ctrl | ND ND ND ND ND ND | ND | 0 of 18 |
| GFTLNQYGIS | VIYSDGRRTFYLDSVK | GRAAGTFDS | Ctrl | 1.03 0.96 1.41 2.00 0.99 1.13 | 1.25 | 1 of 18 (1.45) |
| GFTLNSYGIS | VIYSDGRRTFYQDSVK | GRAAGTIDS | Ctrl | ND 1.59 1.78 ND ND 1.04 | 1.47 | 0 of 18 |
| GFTLNSYGIS | VIYSDGRRTFYGDSVK | GKQAGTFDS | Ctrl+GPLM_Gibbs | ND ND ND ND ND ND; ND 2.65 1.51 1.71 1.30 1.81 | 1.79 | 0 of 36 |
| GFTLNSYGIS | VIYSDGRRTSYEDSVK | GRAAGTFDD | Ctrl | 1.43 2.55 1.39 1.51 1.93 1.38 | 1.70 | 1 of 18 (2.30) |
| GETLNSYGIS | VIYSDGRRTFYGDDVK | GRAAGTFDS | Ctrl | ND ND 2.73 ND 2.48 2.15 | 2.45 | 1 of 18 (1.96) |
| GFTLNDYGIS | VIYSDGRRTFYRDSVK | GRAAGTFDS | Ctrl | ND ND ND ND ND ND | ND | 0 of 18 |
| GFTLLSYGIS | VIYSDGRRTFYSDSVK | GAAAGTFDM | Ctrl | ND 0.26 0.80 1.46 1.05 0.02 | 0.72 | 0 of 18 |

Excerpt, the first 5 entries:

CDR-H1,CDR-H2,CDR-H3,group,"log10 Kd, replicates","log10 Kd (nM), mean",signal with controls
KFTLNSYGIS,VIYSDGRRTFYGDSVK,GRAAGTFEV,Ctrl,ND ND ND ND ND ND,ND,0 of 18
GFTLNSYGIS,VIYSDGRRTFYGDSVK,GKAACTFDS,Ctrl,ND ND ND ND ND ND,ND,0 of 18
GFTQNSYGVS,VIYSDGRRTFYGDDVR,GRIAGTFDS,Ctrl,ND ND ND ND ND ND,ND,0 of 18
GFTLNSYGIQ,VIYSDGYRTFYADSVK,GAAADTFDL,Ctrl,ND ND ND ND 1.96 ND,1.96,0 of 18
GFTLNDYGVS,VIYSDGRRTFYIDSVK,GRAAGTFDQ,Ctrl,ND 0.84 0.62 2.39 0.60 ND,1.11,0 of 18

The measurements come from Li et al. 2023 (doi:10.1038/s41467-023-39022-2) through the FLAb antibody collection.